{"source": "patent US20100092429A1", "about": "“Composition” (Danisco A/S, priority 2006, published 2010)", "system": "Cl. difficile", "details": "Table 10 second experiment, 24 h, 1 w/v-% carbohydrate"}
{"smiles": "OC[C@H]1O[C@H](O)[C@H](O)[C@@H](O)[C@@H]1O", "note": "[Glucose, Alpha-D-Glucose]", "values": [{"measurement": "average area under the growth curve without medium", "value": 346}]}
